# According to ChEMBL document CHEMBL1122015, “Rigid analogues of dopamine: synthesis and interaction of 6-exo- and 6-endo-(3',4'-dihydroxyphenyl)-2-azabicyclo[2.2.2]octanes with dopamine uptake sites and receptors” (J Med Chem, 1982):
# Organism: Rattus norvegicus
# Assay: Effect on stimulatory activity of exogenous DA toward DA-sensitive adenylate cyclase activity in rat striatal homogenates
# Type: functional, organism-based
compound,measurement,value
NCCc1ccc(O)c(O)c1.Oc1ccc([C@H]2CC3CC[C@H]2NC3)cc1O (stereo in doubt; form 1),Activity,183%
NCCc1ccc(O)c(O)c1.Oc1ccc([C@H]2CC3CC[C@H]2NC3)cc1O (stereo in doubt; form 2),Activity,169%
